Results: PubChem BioAssay AID1304 (The Scripps Research Institute Molecular Screening Center, 2008)
Several values for one entry are separate records, joined by “and”; a condition that tells them apart may be missing. Equal values may be shown once. The entries are a selection whose mix differs from that of the whole data set. Activity calls are given as the source filed them. Rule as the data show it: active = activation above about 33% (passing the limit was not always enough); inactive = the rest.

By UniProt entry, the sequences of proteins in these tests, tags left out.
UniProt P25929, whole entry, looked up: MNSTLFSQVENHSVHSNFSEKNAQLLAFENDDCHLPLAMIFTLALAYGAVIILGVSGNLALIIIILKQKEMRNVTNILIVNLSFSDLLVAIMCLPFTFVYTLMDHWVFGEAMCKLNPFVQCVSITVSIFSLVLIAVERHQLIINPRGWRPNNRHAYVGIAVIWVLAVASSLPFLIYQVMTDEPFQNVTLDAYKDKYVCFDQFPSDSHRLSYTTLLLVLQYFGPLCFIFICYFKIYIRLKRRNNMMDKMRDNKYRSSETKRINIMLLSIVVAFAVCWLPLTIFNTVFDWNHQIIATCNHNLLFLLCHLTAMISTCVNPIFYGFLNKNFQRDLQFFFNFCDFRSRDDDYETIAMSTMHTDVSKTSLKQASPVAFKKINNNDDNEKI

Target: Neuropeptide Y receptor type 1 (Homo sapiens) (UniProt P25929)
Assay: activation enhancers of human NPY-Y1 – cell-based, primary screen (AID 1304);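 also: cells stimulated with NPY at EC10 then isoproterenol at EC100; 0% = low agonist plus stimulus and 100% = saturating agonist plus stimulus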
Settings: NPY-Y1 expressing cells, potentiator/agonist activation; at 3.6 µM; stronger effect = higher value

Row | Structure (SMILES) | activation
1 | CCNC(=S)/N=C(\N)N[N+](=O)[O-] | inactive: 9.94%
2 | O=C(NC1CCS(=O)(=O)C1)NP(=S)(Oc1ccccc1)Oc1ccccc1 (stereo not drawn) | inactive: -0.64%
3 | CCOC(=O)NC(Sc1ccccc1)C(Cl)(Cl)Cl (stereo not drawn) | inactive: 8.59%
4 | Cc1ccc(NP(=O)(Oc2cccc(C)c2)Oc2cccc(C)c2)nc1 | inactive: 7.78%
5 | c1ccc(-c2nn[nH]n2)c(-c2nn[nH]n2)c1 | inactive: 8.58%
6 | O=c1c2cc([N+](=O)[O-])ccc2[nH]c2c([N+](=O)[O-])cc([N+](=O)[O-])cc12 | inactive: 8.49%
7 | CN(C)C(=O)Oc1noc2ccccc12 | inactive: 3.45%
8 | Cc1ccccc1OP(=O)(Nc1ccccn1)Oc1ccccc1C | inactive: 21.3%
9 | Cc1ccc(OP(=O)(Nc2ccccn2)Oc2ccc(C)cc2)cc1 | inactive: 4.88%
10 | CC(=O)NC(SC(=S)N(CC(C)C)CC(C)C)C(Cl)(Cl)Cl (stereo not drawn) | inactive: -8.05%
11 | COC(=O)c1cc2c(s1)N=C(c1ccccc1)N(C)P2(=O)N1CCOCC1 (stereo not drawn) | inactive: 20.6%
12 | CCC(=O)N1C2C3N(C(=O)CC)C1C1N(C(=O)CC)C(C(N1C(=O)CC)N3C(=O)CC)N2C(=O)CC | inactive: 1.72%
13 | CC(C)(C)C(=O)NC(Sc1ccccc1)C(Cl)(Cl)Cl (stereo not drawn) | inactive: -0.16%
14 | CCOc1ccc(C2=NCC(CBr)S2)cc1 (stereo not drawn) | inactive: 7.81%
15 | O=P1(Nc2nc3ccc(Cl)cc3s2)COc2ccccc2O1 (stereo not drawn) | inactive: 3.57%
16 | CC(=O)Nc1ccc(Oc2c([N+](=O)[O-])cc([N+](=O)[O-])cc2[N+](=O)[O-])cc1 | inactive: -25.9%
17 | CC(=O)Nc1ccc([As](=O)(O)O)c(O)c1 | inactive: -2.61%
18 | c1nnnn1CCn1cnnn1 | inactive: 3.27%
19 | CC(C)C(=O)NC(Sc1ccccc1)C(Cl)(Cl)Cl (stereo not drawn) | inactive: -8.01%
20 | O=P(Nc1nccs1)(c1ccccc1)c1ccccc1 | inactive: -3.39%
21 | O=P(Nc1nc2ccccc2s1)(c1ccccc1)c1ccccc1 | inactive: 1.29%
22 | O=P(Nc1ccccn1)(c1ccc(Br)cc1)c1ccc(Br)cc1 | inactive: -26%
23 | C(Cc1nn[nH]n1)Cc1nn[nH]n1 | inactive: 12.4%
24 | Nc1ccc([As](=O)(O)c2ccc([N+](=O)[O-])cc2)cc1 | inactive: 16.1%
25 | O=C(OC1CN2CCC1CC2)c1cccc(Cl)c1 (stereo not drawn) | inactive: -13.3%
26 | O=[N+]([O-])c1ncn(CCn2cnc([N+](=O)[O-])n2)n1 | inactive: 16.1%

Row | Structure (SMILES) | activation
27 | CC(=O)NC(SC(=S)N(C)C)C(Cl)(Cl)Cl (stereo not drawn) | inactive: -1.11%
28 | O=[As](O)(c1ccccc1)c1ccc(O)cc1 | inactive: 0.01%
29 | O=C(Nc1cc([As](=O)(O)O)ccc1O)c1ccccc1 | inactive: 4.48%
30 | O=[N+]([O-])c1cccc(NC2=NCC(CBr)S2)c1 (stereo not drawn) | inactive: -3.61%
31 | O=C(O)CNc1ccc([As](=O)(O)O)cc1 | inactive: 8.57%
32 | CC(C)(C)C(=O)NC(Sc1ccncn1)C(Cl)(Cl)Cl (stereo not drawn) | inactive: 2.95%
33 | O=[N+]([O-])c1ncn(CCn2ncnc2[N+](=O)[O-])n1 | inactive: 3.43%
34 | O=[N+]([O-])c1cccc2n[nH]nc12 | inactive: -19.9%
35 | CC(=O)N1C2C3N(C(C)=O)C1C1N(C(C)=O)C(C(N1C(C)=O)N3C(C)=O)N2C(C)=O | inactive: -6.43%
36 | CCc1nc2c(n1)c1c(non1O)c1c2no[n+]1[O-] | inactive: -37.3%
37 | O=[N+]([O-])c1cc([N+](=O)[O-])c(CCNc2ccccc2)c([N+](=O)[O-])c1 | inactive: 11.4%
38 | Cc1ccc(NP(=O)(Oc2ccccc2)Oc2ccccc2)nc1 | inactive: -4%
39 | COc1ccc(C2=NCC(CBr)S2)cc1 (stereo not drawn) | inactive: 4.3%
40 | CN(C)C(=O)OCCc1n(C)cc[n+]1C | inactive: 19.8%
41 | CC(C)=N/N=C(\N)N[N+](=O)[O-] | inactive: 4.49%
42 | CC1CCN(C(=O)Oc2c(Cl)cc(Cl)c3cccnc23)CC1 | inactive: 5.53%
43 | C[N+]1=C2C=CC=CC=C2SC12C([N+](=O)[O-])=CC([N+](=O)[O-])=C[C-]2[N+](=O)[O-] (stereo not drawn) | inactive: 28.3%
44 | Nc1ccc([As](=O)(O)c2ccc(N)cc2)cc1 | inactive: 10.3%
45 | CCN(/C(=N/P(=O)(N1CCOCC1)N1CCOCC1)N1CCOCC1)c1ccc(OC)cc1 | inactive: -0.62%
46 | Cc1ccc(OP(=O)(Nc2nccs2)Oc2ccc(C)cc2)cc1 | inactive: 4.29%
47 | COc1ccccc1OP(=O)(Nc1ccc(C)cn1)Oc1ccccc1OC | inactive: 12.9%
48 | CN1CCCC(OC(=O)C(c2ccccc2)c2ccccc2)C1 (stereo not drawn) | inactive: -17.9%
49 | Clc1ccc(Cl)c(NC2=NCC(CBr)S2)c1 (stereo not drawn) | inactive: 18.5%
50 | NC(=O)c1cc([N+](=O)[O-])cc([N+](=O)[O-])c1N | inactive: -5.71%
51 | Cc1ccc(N/C(=N/P(=O)(N2CCOCC2)N2CCOCC2)N2CCOCC2)cc1 | inactive: 6.83%
52 | Nc1cc(N)c2nonc2c1[N+](=O)[O-] | inactive: 9.44%

Row | Structure (SMILES) | activation
53 | CC(C)CC(=O)NC(Sc1ccc(Cl)cc1)C(Cl)(Cl)Cl (stereo not drawn) | inactive: 18.3%
54 | O=C(NC(Sc1ccncn1)C(Cl)(Cl)Cl)c1ccccc1 (stereo not drawn) | inactive: -10.1%
55 | Cc1c2non([O-])c-2c(C)[n+](=O)[n+]1[O-] | inactive: 19.4%
56 | Oc1ccccc1CNc1ccccn1 | inactive: 15.6%
57 | Cc1ccc(NP(=O)(Oc2ccccc2F)Oc2ccccc2F)nc1 | inactive: 18.4%
58 | Cc1cc(SC(NC(=O)c2ccc(F)cc2)C(Cl)(Cl)Cl)ncn1 (stereo not drawn) | inactive: 2.97%
59 | CCOP(=O)(Nc1ccccc1)OCC | inactive: 15.6% and inactive: 10.8%
60 | CC(=O)Nc1ccc([As](=O)(O)O)cc1 | inactive: 7.52%
61 | O=C(O)c1ccccc1[As](=O)(O)O | inactive: -1%
62 | O=P(Nc1nc2ccc(Cl)cc2s1)(c1ccccc1)c1ccccc1 | inactive: 14.7%
63 | CCN(N=Nc1nonc1N)c1nonc1N | inactive: -3.29%
64 | Nc1cccc2ccc([As](=O)(O)O)cc12 | inactive: 12.8%
65 | Cc1ccc2nc3c(c(C)c2c1)CC(C(Cl)Cl)S3 (stereo not drawn) | inactive: -19.7%
66 | Cc1ccc(OP(=O)(Nc2ccc([N+](=O)[O-])cn2)Oc2ccc(C)cc2)cc1 | inactive: 12.6%
67 | C[As](=O)(O)c1cccc(C(=O)O)c1 | inactive: 17.9%
68 | O=[As](O)(c1ccc(O)cc1)c1ccccc1O | inactive: 4.48%
69 | O=[N+]([O-])c1cc([N+](=O)[O-])c(-c2ccn[nH]2)s1 | inactive: 16.2%
70 | CC(C)NC(=O)NP(=O)(Oc1ccccc1)Oc1ccccc1 | inactive: -10.2%
71 | CCN(CC)C(=S)SC(NC=O)C(Cl)(Cl)Cl (stereo not drawn) | inactive: -2.9%
72 | CC(C)c1ccc(OP(=O)(Nc2ccccn2)Oc2ccccc2F)cc1 (stereo not drawn) | inactive: 3.03%
73 | ClCCSc1nnc(-c2cccnc2)o1 | inactive: -20.5%
74 | COc1cc(I)ccc1[As](=O)(O)O | inactive: 11.6%
75 | COc1ccc2nc(NP(=O)(c3ccccc3)c3ccccc3)sc2c1 | inactive: -1.63%
76 | Cc1cc(=O)[nH]c(N[N+](=O)[O-])n1 | inactive: 17.6%
77 | O=C(OC1CN2CCC1CC2)C12CC3CC(CC(C3)C1)C2 (stereo not drawn) | inactive: -31.2%
78 | Cc1c2c(nc3ccccc13)SC(C(Cl)Cl)C2 (stereo not drawn) | inactive: -9.19%

Row | Structure (SMILES) | activation
79 | COc1ccc(N/C(=N/P(=O)(N2CCOCC2)N2CCOCC2)N2CCOCC2)cc1 | inactive: 13%
80 | O=C(COc1ccccc1)OC1CN2CCC1CC2 (stereo not drawn) | inactive: -1.85%
81 | COP1(=S)c2c(C)nn(CCC#N)c2N=C(c2ccc(F)cc2)N1C (stereo not drawn) | inactive: 13.4%
82 | CCC(C)N(CC(C)C)C(=S)SC(NC(C)=O)C(Cl)(Cl)Cl (stereo not drawn) | inactive: -7.27%
83 | CCOC(=O)c1ccc(NC(=O)C(C)(CCl)SC)cc1 (stereo not drawn) | inactive: -11%
84 | Cc1cc(SC(NC(=O)c2ccccc2)C(Cl)(Cl)Cl)nc(C(C)C)n1 (stereo not drawn) | inactive: -16.9%
85 | CCOC(=O)Nc1ccc([As](=O)(O)O)c(O)c1 | inactive: 8.17%
86 | O=[N+]([O-])c1ccc(Nc2ccc(Oc3ccc([N+](=O)[O-])cc3[N+](=O)[O-])cc2)c([N+](=O)[O-])c1 | inactive: 16.9%
87 | O=P(Nc1ccccn1)(c1cccc2ccccc12)c1cccc2ccccc12 | inactive: 6.91%
88 | Cc1cc(SC(NC=O)C(Cl)(Cl)Cl)ncn1 (stereo not drawn) | inactive: -8.52%
89 | CCOC(=O)Nc1cccc([As](=O)(O)O)c1 | inactive: -11.3%
90 | O=C(/C=C/c1ccccc1)OC1CN2CCC1CC2 (stereo not drawn) | inactive: -9.29%
91 | CN(C)C1(CNC(=O)c2ccc(S(C)(=O)=O)cc2)CCCCC1 | inactive: 21.3%
92 | CC1CCC(C(C)C)C(OP(=O)(Nc2ccccn2)c2ccccc2)C1 (stereo not drawn) | inactive: 10.9%
93 | Cc1nn(-c2ccccc2)c2c1P(=O)(N1CCOCC1)N(C)C(c1ccccc1)=N2 (stereo not drawn) | inactive: 7.68%
94 | O=[As](O)(c1cccs1)c1cccs1 | inactive: 21.9%
95 | Cc1ccc(OCC(=O)OC2CN3CCC2CC3)cc1 (stereo not drawn) | inactive: -15.6%
96 | O=P1(Nc2ccc(Br)cn2)COc2ccccc2OC1 | inactive: 13.3%
97 | Nc1cccc([As](=O)(O)c2ccccc2)c1 | inactive: -0.81%
98 | O=P1(Nc2ncccn2)COc2ccccc2OC1 | inactive: 3.2%
99 | CC(C)(C)C(=O)NC(Sc1ncccn1)C(Cl)(Cl)Cl (stereo not drawn) | inactive: 14.6%
100 | Clc1n[nH]nc1-c1nn[nH][15n]1 | inactive: -9.02%
101 | CCOP(=O)(Nc1ccc(C)cn1)OCC | inactive: 8.62%
102 | O=P1(Nc2ccccn2)COc2ccccc2OC1 | inactive: -8%
103 | CC1(CBr)Cn2c(nc3ccccc3c2=O)S1 (stereo not drawn) | inactive: -2.02%
